The list shows a part of the results, in another mix than the full data. Some of these compounds have results that are not shown, active ones among them. Results filed as inconclusive are left out. Calls of active or inactive are those of the source. How the source made its calls: active means clear falling dose curves in both reporters; inconclusive means both reporters move, but less clearly or upward; inactive means either reporter flat; the % is the NLuc reporter signal.

Consider five compounds from PubChem BioAssay AID1508649 (National Center for Advancing Translational Sciences (NCATS), 2021).
On the % scale 0 is the no-effect control and ±100 the full control effect.

This test is described as follows: Cell-based coincidence reporter assay to measure PMP22 gene transcription in S16 Pmp22-F2sN cells - Primary screen. Particulars: S16 Pmp22-F2sN Schwann cells (luciferase reporters placed in the Pmp22 gene), FLuc/NLuc coincidence luminescence, 24 h; at 57.5 µM (top of the series). An excerpt:
Assay Provider: Jim Inglese Ph.D. National Center for Advancing Translational Science, National Institutes of Health, Rockville, MD CMT is a heterogeneous group of neurological disorders that affect approximately 1 in 2,500 people. In particular, the most common form of CMT, CMT1A is genetically linked to the duplication of the PMP22 gene which leads to Schwann cell overexpression, thus manifesting itself as a typical case of dose-sensitive diseases. To identify small molecule compounds that can mediate the expression of PMP22 we developed a phenotypic assay screening strategy by utilizing genome editing techniques to construct Schwann cell lines containing novel reporter technology to monitor the transcriptional or translational regulation of PMP22. For high sensitivity we use a bioluminescent reporter system embedded in the 3' UTR of the PMP22 gene (S16(c9) Pmp22-F2sN) to identify compounds that inhibit gene expression. […] We can further discriminate the effect of all transcriptionally active molecules on PMP22 translation or stability with an assay that incorporates a short NLuc peptide (HiBiT) at the C-terminus of expressed PMP22 (S16(f8) PMP22-HiBiT) allowing alpha complementation and luminescence detection of membrane-associated PMP22 protein. These assays were screened against the NCATS Sytravon Library Collection. Miniaturization of these assays to 1536-well plate format for quantitative high throughput screening (qHTS) yielded rich data sets immediately from the qHTS assay (S16(c9) Pmp22-F2sN), when compared with data from a cell viability assay (Cell TiterGlo) to identify compounds that decreased the output signals through cellular toxicity to streamline the selection process of actives for subsequent characterization using the HiBiT assay (S16(f8) PMP22-HiBiT).
Cell-based coincidence reporter assay to measure PMP22 gene transcription in S16 Pmp22-F2sN cells PROTOCOL TABLE (format as described by Inglese J, Shamu CE and Guy RK. 2007) SEQUENCE No. (e.g., 1, 2, 3, etc.); […] (e.g., Cells, Incubation, Reagent, etc.); VALUE and DESCRIPTION. 1. Cells. Add 500-1,000 cells in 4 uL in growth media (DMEM High Glucose, No Phenol Red media + 10% heat-inactivated FBS + 1% Pen/Strep supplemented media) per well into Greiner 1536-well white/solid bottom high base, TC-treated plates. 2. Compounds. Library compounds and controls added at 23nL per well, transferred by Pin Tool. 3. Incubation. Incubate plates at 37C, 5% CO2, 95% RH for 24 h. 4. Reagent. Add 3.5uL Nano-Glo Dual-Luciferase Reporter Assay System reagent 1: Lysis and FLuc reagent per well of Greiner 1536-well plates. 5. Incubation. Incubate plates at room temperature for 10 min., protect from light. 6. Detector. FLuc luminescence measured using CCD-based camera (Viewlux). 7. Reagent. Add 3.5uL Nano-Glo Dual-Luciferase Reporter Assay System reagent 2: Stop&Glo reagent per well of Greiner 1536-well plates. 8. Incubation. Incubate plates at room temperature for 10 min., protect from light. 9. Detector. NLuc luminescence measured using CCD-based camera (Viewlux). […] Luminescence Read #1 (FLuc): Clear filter; Exposure = 10 sec, Gain = High, Speed = Slow, Binning = 2X 9. Luminescence Read #2 (NLuc): Clear filter; Exposure = 1 sec, Gain = High, Speed = Slow, Binning = 2X REFERENCES: 1. […] Yasgar A, Shinn P, Jadhav A, Auld DS, Michael S, Zheng W, Austin CP, Inglese J and Simeonov A, Compound Management for Quantitative High-Throughput Screening. […]
For orientation: Reporter assays use an easily measured gene product as a stand-in for the process of interest.
As for `CC(C)COc1ccc(C(=O)NCC2(N(C)C)CCCCC2)cc1`, the activity change, negative = inhibition is inactive: -34.3%.
The result for `CC(C)Oc1ccc(C(=O)NCC2(N(C)C)CCCCC2)cc1` reads inactive: -7.71%.
The result for `Cc1cccc(C(=O)NCC2(N(C)C)CCCCC2)c1` reads inactive: -5.08%.
Turning to `CN(C)C1(CNC(=O)c2ccccc2[N+](=O)[O-])CCCCC1`, the activity change, negative = inhibition is inactive: -10.7%.
The result for `CCOc1cccc(C(=O)NCC2(N(C)C)CCCCC2)c1` reads inactive: -29.7%.
